# Assay results as given in ChEMBL document CHEMBL1128449, “Novel 4'-substituted and 4',4"-disubstituted 3 alpha-(diphenylmethoxy)tropane analogs as potent and selective dopamine uptake inhibitors” (J Med Chem, 1995).
# Chains of the proteins cited; added tags and fusions are not shown. Lines headed by an entry give the natural chain unless they say otherwise; changes in a name come on top.
# UniProt P08482: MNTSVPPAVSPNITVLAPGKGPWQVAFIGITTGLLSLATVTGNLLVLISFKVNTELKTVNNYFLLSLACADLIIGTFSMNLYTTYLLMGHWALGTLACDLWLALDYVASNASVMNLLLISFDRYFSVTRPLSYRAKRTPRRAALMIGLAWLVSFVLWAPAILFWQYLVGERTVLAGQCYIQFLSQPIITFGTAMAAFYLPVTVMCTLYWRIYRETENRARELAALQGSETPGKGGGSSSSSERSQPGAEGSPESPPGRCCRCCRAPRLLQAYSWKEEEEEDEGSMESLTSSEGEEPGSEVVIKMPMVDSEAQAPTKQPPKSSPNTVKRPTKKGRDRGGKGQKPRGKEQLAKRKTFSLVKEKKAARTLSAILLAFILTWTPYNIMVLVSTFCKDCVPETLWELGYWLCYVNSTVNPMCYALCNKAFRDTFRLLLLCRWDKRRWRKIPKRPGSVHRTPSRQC
# Molecular target: Muscarinic acetylcholine receptor M1 (Rattus norvegicus, UniProt P08482)
# Test: Affinity for rat M1 acetylcholine receptor using [3H]pirenzepine displacement.
structure (smiles),measurement,value
CN1C2CCC1CC(OC(c1ccc(F)cc1)c1ccc(F)cc1)C2 (stereo unspecified) [DIFLUOROBENZTROPINE],Ki,6.1 nM
